Data taken from ChEMBL document CHEMBL1212898 (J Med Chem, 2010).

Protein sequences, listed by entry. Tags and fused reporters are not part of them.
UniProt P23977, whole entry: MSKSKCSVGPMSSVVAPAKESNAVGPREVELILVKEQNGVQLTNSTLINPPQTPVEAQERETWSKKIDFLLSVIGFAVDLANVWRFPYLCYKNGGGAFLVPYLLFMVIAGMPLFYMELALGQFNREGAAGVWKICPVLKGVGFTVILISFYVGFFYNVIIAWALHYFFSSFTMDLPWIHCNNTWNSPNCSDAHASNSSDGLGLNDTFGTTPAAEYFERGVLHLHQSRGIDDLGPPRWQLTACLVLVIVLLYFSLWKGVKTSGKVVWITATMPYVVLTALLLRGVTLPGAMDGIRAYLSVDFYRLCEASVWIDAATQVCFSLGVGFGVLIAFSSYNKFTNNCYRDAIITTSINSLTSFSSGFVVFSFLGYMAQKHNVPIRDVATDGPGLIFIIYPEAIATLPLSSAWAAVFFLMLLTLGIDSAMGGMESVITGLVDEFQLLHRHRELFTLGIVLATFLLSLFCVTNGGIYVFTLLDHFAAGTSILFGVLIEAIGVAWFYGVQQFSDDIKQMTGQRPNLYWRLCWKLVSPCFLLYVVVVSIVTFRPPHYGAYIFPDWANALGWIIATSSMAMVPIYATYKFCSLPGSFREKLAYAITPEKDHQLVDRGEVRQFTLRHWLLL

Biological target: Sodium-dependent dopamine transporter (Rattus norvegicus, UniProt P23977)
Experiment: Displacement of [3H]WIN-35428 from DAT in rat caudate-putamen by scintillation counting
Assay type: tissue-based

SMILES	Ki
CN(C)CCCC1(c2ccc(F)cc2)OCc2cc(C#N)ccc21 (racemic) [CITALOPRAM]	9.27 µM
CN(C)CCC[C@@]1(c2ccc(F)cc2)OCc2cc(C#N)ccc21 [ESCITALOPRAM]	8.15 µM
